Measured values published in publication PMC10362367 (Molecular Metabolism, 2023).

Target: human FLAG-CaMKK2 (Homo sapiens, UniProt Q96RR4)
Assay: In vitro CaMKK2 activity assay
Format: biochemical
Details: CaMKK2 vs CaMKK1

O=C(O)c1ccc2c3c1cccc3c(=O)n1c3ccccc3nc21 [STO-609, 7-Oxo-7h-benzimidazo-[2,1-a]benz[de]isoquinoline-7-one-3-carboxylic acid]
inhibition of CaMKK2 more sensitive than CaMKK1: 2–3 fold
